Laboratory results reported in paper PMC3726442, “Relationship between Genotypes Sult1a2 and Cyp2d6 and Tamoxifen Metabolism in Breast Cancer Patients” (PLoS ONE, 2013).

Assay: Plasma concentrations of tamoxifen and its metabolites in breast cancer patients on tamoxifen, by HPLC-tandem mass spectrometry
[1] = all samples analyzed, n = 125, before daily 20 mg TAM dose

SMILES: CC/C(=C(\c1ccccc1)c1ccc(OCCN(C)C)cc1)c1ccccc1 [Tamoxifen]
- mean plasma concentration (±SD) [1]: 202.32 ± 94.55 ng/mL
- median plasma concentration [1]: 176.98 ng/mL
- plasma concentration, mean ±SD (genotype CYP2D6 I/P, n = 8): 173.84 ± 65.10 ng/mL
- plasma concentration, median (genotype CYP2D6 I/P, n = 8): 185.42 ng/mL
- plasma concentration, median (genotype CYP2D6 wt/I, n = 4): 189.98 ng/mL
- plasma concentration, median (genotype CYP2D6 wt/P, n = 26): 169.64 ng/mL
- plasma concentration, median (genotype CYP2D6 wt/wt, n = 78): 176.91 ng/mL
- plasma concentration, mean ±SD (genotype CYP2D6 wtxN/P, n = 2): 183.66 ± 114.20 ng/mL
- plasma concentration, median (genotype CYP2D6 wtxN/P, n = 2): 183.66 ng/mL
- plasma concentration, median (genotype CYP3A4 wt/*17, n = 9): 187.36 ng/mL
- plasma concentration, median (genotype CYP3A4 wt/wt, n = 107): 175.91 ng/mL
- plasma concentration, median (genotype CYP3A5 *3/*3, n = 117): 176.98 ng/mL
- plasma concentration, median (genotype SULT1A1 wt/*2, n = 46): 171.44 ng/mL
- plasma concentration, median (genotype SULT1A1 wt/wt, n = 60): 185.11 ng/mL
- plasma concentration, mean ±SD (genotype SULT1A2 *2/*2, n = 16): 191.59 ± 85.40 ng/mL
- plasma concentration, median (genotype SULT1A2 *2/*2, n = 16): 173.20 ng/mL
- plasma concentration, mean ±SD (genotype SULT1A2 *3/*3, n = 5): 188.23 ± 69.26 ng/mL
- plasma concentration, median (genotype SULT1A2 wt/*2, n = 33): 175.91 ng/mL
- plasma concentration, mean ±SD (genotype SULT1A2 wt/*3, n = 16): 184.68 ± 75.43 ng/mL
- plasma concentration, median (genotype SULT1A2 wt/*3, n = 16): 174.42 ng/mL
- plasma concentration, mean ±SD (genotype SULT1A2 wt/wt, n = 38): 189.75 ± 71.12 ng/mL
- plasma concentration, median (genotype SULT1A2 wt/wt, n = 38): 184.50 ng/mL
- plasma concentration, median (genotype SULT1E1 wt/*2, n = 28): 186.14 ng/mL
- plasma concentration, median (genotype SULT1E1 wt/wt, n = 88): 172.65 ng/mL
- mean plasma concentration (±SD) (patients not receiving CYP2D6 inhibitors): 203.63 ± 96.19 ng/mL
